Among the data in paper PMC10799709, “Characterization of a New Immunosuppressive and Antimicrobial Peptide, DRS-DA2, Isolated from the Mexican Frog, Pachymedusa dacnicolor” (International Journal of Inflammation, 2024) are MIC values, retold here.

In one assay the test system is P. aeruginosa ATCC 27853. The assay can be described thus: Antimicrobial assay MIC/MBC. In kind it is cell-based. The note with it: MH broth, 37°C, 20 hours. On the procedure: (§1) The minimum inhibitory concentration (MIC) was determined by a liquid test in 96-well microplates as previously described. 100 µL of the sample to be tested was distributed in triplicate to obtain a range of final concentrations from 100 to 0.2 µM in the wells. 90 µL of bacterial suspension (5 × 10^5 CFU/mL for Gram-negative bacteria and 5 × 10^5 CFU/mL for Gram-positive strains in Mueller–Hinton broth) were added to each well [14]. The microtiter plates were incubated at 37°C overnight. The optical density of the wells was measured at […], and the results were interpreted by calculating the percentage of growth in each well according to the formula: % growth = (OD600 well − OD600 T0)/(OD600 of T100 − OD600 T0) ∗ 100, where OD600 T100 = DO600 growth control (bacterial suspension without the test sample, 100% growth), OD600 T0 = OD600 of sterility control (culture medium + […] 10 µL formaldehyde, 0% growth) well, and OD600 = OD600 of the well which was desired to calculate the percentage of growth (+ bacterial suspension test sample). MIC is the minimum concentration of the peptide that inhibits bacterial growth after incubation at 37°C for 20 hours.
(§2) The minimum bactericidal concentration (MBC) is defined as the minimum concentration of the peptide killing 99.9% of bacteria after incubation at 37°C for 20 hours. […]

The test system of a further assay is S. aureus ATCC 6538. The assay can be described thus: Antimicrobial assay MIC/MBC. Format: cell-based. The note with it: MH broth, 37°C, 20 hours. Here is the method:
as §1, §2

Converted amounts (≈) assume the structure as drawn.

What is called MIC is the lowest concentration that inhibits growth of the organism. As for `CC[C@H](C)[C@H](NC(=O)CN)C(=O)NCC(=O)N[C@@H](C)C(=O)N[C@H](C(=O)N[C@@H](CC(C)C)C(=O)N[C@@H](CCCCN)C(=O)N[C@H](C(=O)N[C@@H](CC(C)C)C(=O)N[C@H](C(=O)N[C@H](C(=O)NCC(=O)N[C@@H](CC(C)C)C(=O)N1CCC[C@H]1C(=O)N[C@@H](C)C(=O)N[C@@H](CC(C)C)C(=O)N[C@H](C(=O)N[C@@H](CO)C(=O)N[C@@H](Cc1c[nH]c2ccccc12)C(=O)N[C@H](C(=O)N[C@@H](CCCCN)C(=O)N[C@@H](CCCNC(=N)N)C(=O)N[C@@H](CCCCN)C(=O)N[C@@H](CCCNC(=N)N)C(=O)N[C@@H](CCC(N)=O)C(=O)N[C@@H](CCC(N)=O)C(N)=O)[C@@H](C)CC)[C@@H](C)CC)[C@@H](C)O)[C@@H](C)O)C(C)C)C(C)C` [Melittin, melittin], the values for the minimal inhibitory concentration (MIC) with P. aeruginosa ATCC 27853 and against S. aureus ATCC 6538 were 50 pM (≈ 0.142 ng/mL) and 6.3 pM (≈ 0.0179 ng/mL), respectively.
